Where a name gives a salt, the structure may show the parent alone.
Assays:
[1] = Phenylquinone writhing test; conditions: for ED50: Mus musculus, read-out: Phenylquinone Writhing Test ED50; for Phenylquinone Writhing Test ED50: mice
AgNO3 arthritis test = conditions: for ED50: Rattus norvegicus, sc, read-out: AgNO3 Arthritis Test ED50
[2] = tested on: evoked potentials in central nervous system; assay: Effect on the various evoked potentials in central nervous system; assay type: in vivo, Male Wistar rats; set-up: key to Amplitude of Evoked Responses, VP-COR / Amplitude of Evoked Responses, HIP-AMY / Amplitude of Evoked Responses, HIP-SEP: -: No change; --: No change; (+): Levallorphan antagonism; (-): Levallorphan antagonism
Procedure: Male Wistar rats, weighing 300-350 g, were used under ethyl ether anesthesia. The trachea and femoral vein were cannulated for artificial respiration and drug injection, respectively. Immobilization of the rat was maintained by gallamine thioethiodide (10 mg/kg) given intravenously every one hours. All wound edges were infiltration with carbocaine hydrochloride. The experiments began after at least 2 hours had elapsed from discontinuance of ether anesthesia. The COR (somatosensory cortex) evoked potentials by VP (neucleus ventralis posterior thalamus) stimulation (VP - COR evoked potential) were recorded from somatosensory cortex, through a silver electrode applied directly to the cortex. In order to record VP and MRF (midbrain reticular formation) evoked potentials by sciatic nerve stimulation or AMY (amygdala) and SEP (septum) evoked potentials by HIP (hippocampus) stimulation, bipolar stainless steel electrodes were stereotaxically placed into the VP, MRF, AMY, SEP and HIP. The stimuli were delivered to various sites every 2 seconds from a stimulation and consisted of 0.1 msec rectangular pulses (twice threshold intensity). The evoked responses were visualized on an oscilloscope. All records were made up of 20 superimposed tracings.

[3] = rat, in vivo
Mouse jumping test = conditions: administration at a lethal dose
Electric stimuli test = conditions: for ED50: Mus musculus, read-out: Electric Stimuli Test ED50; for Electric Stimuli Test ED50: mice
Hot plate test = conditions: for ED50: Rattus norvegicus, sc, read-out: Hot Plate Test ED50
[4] = rat, in vivo; remark: listed apart in the source
Tolerance test = assay type: in vivo; conditions: continuous administration
in vivo = conditions: rat
[5] = Bradykinin nociception test; conditions: for ED50: Rattus norvegicus, read-out: Bradykinin Nociception Test ED50; for Bradykinin Nociception Test ED50: rats
[6] = Antagonism by levallorphan in electric stimuli test; conditions: electric stimuli test in mice; levallorphan (narcotic antagonist)
[7] = Tooth pulp nociception test; conditions: rabbit, in vivo, iv
[8] = tested on: ventro-medial hypothalamus; conditions: compared with Test compound B; cited from earlier work

Compound | ED50 ([1]; po) | ED50 ([1]; sc) | ED50 (AgNO3 arthritis test) | ED50 (Electric stimuli test; po) | ED50 (Electric stimuli test; sc) | ED50 (Hot plate test) | LD50 (in vivo; ip) | LD50 (in vivo; po) | LD50 (in vivo; sc) | ED50 ([5]; sc) | Influence of levallorphan on analgesic activity [6] | inhibition of threatening and rage reactions [8] | other results
CN1C(=O)CCN(C2CCN(CCc3ccccc3)CC2)C1=O [Test compound C, 1-(1-phenethyl-4-piperidyl)-3-methyl-hydrouracil hydrochloride] | 5 mg/kg | 1.5 mg/kg | 45 mg/kg | 220 mg/kg | 50 mg/kg | 10 mg/kg | 150 mg/kg | 900 mg/kg | 700 mg/kg | 70 mg/kg | did not influence the analgesic activity |  | Amplitude of Evoked Responses, HIP-AMY ([2]; 5 mg/kg i.v.): --; Amplitude of Evoked Responses, HIP-SEP ([2]; 5 mg/kg i.v.): --; Amplitude of Evoked Responses, VP-COR ([2]; 5 mg/kg i.v.): --; Amplitude of Evoked Responses, HIP-AMY ([2]; 10 mg/kg i.v.): --; Amplitude of Evoked Responses, HIP-SEP ([2]; 10 mg/kg i.v.): --; Amplitude of Evoked Responses, HIP-AMY ([2]; 25 mg/kg i.v.): --; Amplitude of Evoked Responses, HIP-SEP ([2]; 25 mg/kg i.v.): --; compensatory adjustment against codeine [3]: had not compensatory adjustment against codeine; jumping symptom (Mouse jumping test): did not cause any jumping symptom; body weight reduction [4]: not reduced; cross tolerance against codeine (Tolerance test): did not show a cross tolerance against codeine; tolerance (decrease of effects) (Tolerance test): did not cause a significant decrease of effects; ED50 ([5]; po): 400 mg/kg
O=C1CCN(C2CCN(CCc3ccccc3)CC2)C(=O)N1 [Test compound D, 1-(1-phenethyl-4-piperidyl)hydrouracil hydrochloride] | 4 mg/kg | 2.5 mg/kg | 90 mg/kg | 220 mg/kg | 100 mg/kg | 200 mg/kg | 180 mg/kg | 500 mg/kg | 450 mg/kg | 25 mg/kg |  |  | 
COc1cccc(C2(O)CCCCC2CN(C)C)c1 (centres unmarked) [Tramadol, reference compound] |  |  |  |  |  |  | 150 mg/kg | 228 mg/kg | 300 mg/kg |  | reduced |  | Phenylquinone Writhing Test ED50 ([1]; p.o.): 11 mg/kg; Phenylquinone Writhing Test ED50 ([1]; s.c.): 1.5 mg/kg; AgNO3 Arthritis Test ED50 (AgNO3 arthritis test; rats, s.c.): 17 mg/kg; Electric Stimuli Test ED50 (Electric stimuli test; p.o.): 23 mg/kg; Electric Stimuli Test ED50 (Electric stimuli test; s.c.): 12 mg/kg; Hot Plate Test ED50 (Hot plate test; rats, s.c.): 50 mg/kg; Tooth Pulp Nociception Test IT100 [7]: 5 mg/kg; Bradykinin Nociception Test ED50 ([5]; p.o.): 50 mg/kg; Bradykinin Nociception Test ED50 ([5]; s.c.): 70 mg/kg
CN(C)CCCN1c2ccccc2Sc2ccc(Cl)cc21 [chlorpromazine] |  |  |  |  |  |  |  |  |  |  |  | less active | 
CN1C(=O)CN=C(c2ccccc2)c2cc(Cl)ccc21 [diazepam] |  |  |  |  |  |  |  |  |  |  |  | less active | 
CCCC(C)C1(CC)C(=O)NC(=O)NC1=O (centres unmarked) [pentobarbital] |  |  |  |  |  |  |  |  |  |  |  | less active | 
